This is an account of results in PubChem BioAssay AID368 (University of Pittsburgh Molecular Library Screening Center, 2006).

Sequences of proteins named here, by UniProt entry; tags and fusion partners are left off.
UniProt P30305, whole entry: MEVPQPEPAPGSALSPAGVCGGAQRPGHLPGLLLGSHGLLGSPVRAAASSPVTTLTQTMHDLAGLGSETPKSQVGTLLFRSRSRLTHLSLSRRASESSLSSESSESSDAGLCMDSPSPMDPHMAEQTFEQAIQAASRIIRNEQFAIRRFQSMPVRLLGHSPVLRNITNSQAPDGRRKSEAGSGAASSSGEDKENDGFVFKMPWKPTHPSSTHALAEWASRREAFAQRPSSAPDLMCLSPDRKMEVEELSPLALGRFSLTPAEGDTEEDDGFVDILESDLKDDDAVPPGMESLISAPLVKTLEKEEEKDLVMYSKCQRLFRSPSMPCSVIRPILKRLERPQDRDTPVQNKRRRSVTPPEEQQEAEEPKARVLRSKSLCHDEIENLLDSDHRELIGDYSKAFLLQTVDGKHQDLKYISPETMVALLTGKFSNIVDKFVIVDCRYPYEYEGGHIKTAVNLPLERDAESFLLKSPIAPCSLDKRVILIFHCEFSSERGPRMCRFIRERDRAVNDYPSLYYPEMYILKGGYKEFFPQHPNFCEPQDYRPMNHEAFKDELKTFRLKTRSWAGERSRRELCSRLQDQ

A word on the inhibition: it is the drop in the measured response relative to a control, in per cent.

The entries are a selection whose mix differs from that of the whole data set. Active and inactive are the calls of the source. No stated cut-off is given here; in the data, active means inhibition above about 50%; inactive means the rest.

The target in the assay is M-phase inducer phosphatase 2 (Homo sapiens) (UniProt P30305). Put plainly: human Cdc25B tyrosine phosphatase blockers – biochemical, OMFP fluorescence, catalytic domain, primary screen (AID 368). As to conditions: recombinant Cdc25B, OMFP fluorescence Ex485/Em525; hits give high values;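 compounds tested at 10 µM final in the well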.
With `N/C(=N\O)c1c(N)no[n+]1[O-]`, the inhibition was inactive: -5.11%.

Consider `Fc1ccccc1NC1CCN(Cc2ccccc2)CC1`, for which the inhibition was inactive: -4.12%.

Turning to `CCOc1ncccc1C(=O)NCC1(N2CCOCC2)CCCCC1`, the inhibition is inactive: -3.35%.

In the case of `CCC(CO)(C(=O)OC1CN2CCC1CC2)c1ccccc1` (configuration not stated), the inhibition was inactive: -5.1%.

In the case of `O=C(OC1CN2CCC1CC2)C1c2ccccc2Oc2ccccc21` (configuration not stated), the inhibition is inactive: -1.85%.

For the molecule `COc1ccc(NC2CCN(CCc3ccccc3)CC2)c(OC)c1`, the inhibition was inactive: -10.5%.

With `N#CC1(Nc2ccccc2)CCN(CCc2ccccc2)CC1`, the inhibition was inactive: -2.57%.
